system: pERK in NF1-LOF tumor cell lines sNF96.2, MeWo, and NCI-H1838; assay: pERK modulation pattern, MSD ELISA, statements on all three NF1-LOF tumor cell lines; details: 1 hour after treatment, 10 μmol/L to 1.52 nmol/L

Row | Compound | pERK modulation pattern over concentration
1 | O=C1CCc2c(Oc3ccc4c(c3)[C@@H]3[C@H](O4)[C@H]3c3nc4ccc(C(F)(F)F)cc4[nH]3)ccnc2N1 [BGB-283] | bell-shaped curve of pERK modulation
2 | Cc1ccc2c(Nc3cccc(Cl)c3F)nccc2c1NC(=O)c1csc2c(N)ncnc12 [Belvarafenib] | bell-shaped curve of pERK modulation
3 | Cc1ccc(NC(=O)c2ccnc(C(F)(F)F)c2)cc1-c1cc(OCCO)nc(N2CCOCC2)c1 [LXH254] | bell-shaped curve of pERK modulation
4 | N#Cc1c(Oc2ccc(F)c(NC(=O)Cc3cccc(C(F)(F)F)c3)c2)ccc2nc(NC(=O)C3CC3)sc12 [TAK-632] | bell-shaped curve of pERK modulation
5 | CCCS(=O)(=O)Nc1ccc(F)c(C(=O)c2c[nH]c3ncc(-c4ccc(Cl)cc4)cc23)c1F [Vemurafenib] | pERK levels increased with vemurafenib concentration

Source: paper PMC12015663 (Cancer Research Communications, 2025)
